Measured values reported in PubChem BioAssay AID652010 (The Scripps Research Institute Molecular Screening Center, 2013).
This is a selection; strong and weak results do not stand in their true shares. Calls of active or inactive are those of the source.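 Rule for the calls: active = inhibition above the mean over all tested compounds plus 3 SD (cut at about 3.6% in these data); inactive = the rest.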

Test: DAX1 (NR0B1) inhibitors on StAR promoter, primary screen, cell-based, luminescence, SF-1 (NR5A1), full-length DAX-1 (AID 652010);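 note: 0% = DAX-1 cells with DMSO and 100% = cells lacking DAX-1 with DMSO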
Conditions: HEK293T StAR-luciferase reporter, SF-1/DAX-1 repression relief; at 6.8 µM; stronger effect = higher value

Compound | inhibition
O=P(Nc1nccs1)(c1ccccc1)c1ccccc1 | inactive: -0.6%
c1nnnn1CCn1cnnn1 | inactive: -0.17%
O=[N+]([O-])c1ncn(CCn2cnc([N+](=O)[O-])n2)n1 | inactive: -0.23%
CC(=O)NC(SC(=S)N(C)C)C(Cl)(Cl)Cl (stereo unspecified) | inactive: -0.53%
O=[As](O)(c1ccccc1)c1ccc(O)cc1 | inactive: 0.65%
Nc1ccc([As](=O)(O)c2ccc([N+](=O)[O-])cc2)cc1 | inactive: -0.05%
C(Cc1nn[nH]n1)Cc1nn[nH]n1 | inactive: 0.53%
C/C(N)=N\P(=O)(OCc1ccccc1)OCc1ccccc1 | inactive: 0.26%
O=C(OC1CN2CCC1CC2)c1cccc(Cl)c1 (stereo unspecified) | inactive: 0.18%
Nc1ccc(CCCCOc2ccccc2)cc1 | inactive: 0.01%
COc1ccc(N)c([N+](=O)[O-])c1[N+](=O)[O-] | inactive: -0.68%
O=P(Nc1ccccn1)(c1ccc(Br)cc1)c1ccc(Br)cc1 | inactive: 0.1%
CN(C)C1(CNC(=O)c2ccc(Cl)c(S(N)(=O)=O)c2)CCCCC1 | inactive: -0.1%
C[C@H]1OP(=O)(Oc2ccccc2)[C@H](O)[C@H](O)[C@H]1N=[N+]=[N-] (stereo partly specified) | inactive: 0.17%
O=P(Nc1nc2ccccc2s1)(c1ccccc1)c1ccccc1 | inactive: -0.1%
CC(C)(C)C(=O)NC(Sc1ccncn1)C(Cl)(Cl)Cl (stereo unspecified) | inactive: 0.29%
O=[N+]([O-])c1ncn(CCn2ncnc2[N+](=O)[O-])n1 | inactive: -0.19%
O=[N+]([O-])c1cccc(NC2=NCC(CBr)S2)c1 (stereo unspecified) | inactive: -0.01%
COC(=O)C1(C)COP(=O)(Nc2ccccc2)OC1 (stereo unspecified) | inactive: -0.75%
O=C(O)CNc1ccc([As](=O)(O)O)cc1 | inactive: -0.17%
O=P1(N(CCCl)CCCl)OCCCS1 (stereo unspecified) | inactive: -0.1%
O=C(Nc1cc([As](=O)(O)O)ccc1O)c1ccccc1 | inactive: 0.07%

Compound | inhibition
C[N+]1=C2C=CC=CC=C2SC12C([N+](=O)[O-])=CC([N+](=O)[O-])=C[C-]2[N+](=O)[O-] (stereo unspecified) | inactive: -2.05%
Nc1ccc([As](=O)(O)c2ccc(N)cc2)cc1 | inactive: -0.11%
CCN(/C(=N/P(=O)(N1CCOCC1)N1CCOCC1)N1CCOCC1)c1ccc(OC)cc1 | inactive: -0.39%
CN(C)C(=O)OCCc1n(C)cc[n+]1C | inactive: 0.71%
CC(C)=N/N=C(\N)N[N+](=O)[O-] | inactive: -0.09%
CC(C)c1nc(Nc2ccccc2)n(P(=O)(N(C)C)N(C)C)n1 | inactive: -0.12%
c1cc(-c2nn[nH]n2)ccc1-c1nn[nH]n1 | inactive: -0.69%
CC1CCN(C(=O)Oc2c(Cl)cc(Cl)c3cccnc23)CC1 | inactive: -0.85%
COc1ccc(C2=NCC(CBr)S2)cc1 (stereo unspecified) | inactive: -0.12%
O=[N+]([O-])c1cccc2n[nH]nc12 | inactive: -0.38%
CC(=O)N1C2C3N(C(C)=O)C1C1N(C(C)=O)C(C(N1C(C)=O)N3C(C)=O)N2C(C)=O | inactive: 0.21%
CCc1nc2c(n1)c1c(non1O)c1c2no[n+]1[O-] | inactive: -1.81%
O=[N+]([O-])c1cc([N+](=O)[O-])c(CCNc2ccccc2)c([N+](=O)[O-])c1 | inactive: -2.48%
Cc1ccc(NP(=O)(Oc2ccccc2)Oc2ccccc2)nc1 | inactive: -0.31%
CC(C)CC(=O)NC(Sc1ccc(Cl)cc1)C(Cl)(Cl)Cl (stereo unspecified) | inactive: 1.49%
Nc1cc(N)c2nonc2c1[N+](=O)[O-] | inactive: -0.61%
O=C(NC(Sc1ccncn1)C(Cl)(Cl)Cl)c1ccccc1 (stereo unspecified) | inactive: -0.4%
Oc1ccccc1CNc1ccccn1 | inactive: -0.05%
NC(=O)c1cc([N+](=O)[O-])cc([N+](=O)[O-])c1N | inactive: -0.25%
Cc1ccc(N/C(=N/P(=O)(N2CCOCC2)N2CCOCC2)N2CCOCC2)cc1 | inactive: -0.33%
CN(C(=O)Cc1ccc(Cl)c(Cl)c1)[C@H]1CCCC[C@H]1N1CCCC1 | inactive: 0.45%
Cc1ccc(OP(=O)(Nc2nccs2)Oc2ccc(C)cc2)cc1 | inactive: 0.06%

Compound | inhibition
COc1ccccc1OP(=O)(Nc1ccc(C)cn1)Oc1ccccc1OC | inactive: 0.49%
Clc1ccc(Cl)c(NC2=NCC(CBr)S2)c1 (stereo unspecified) | inactive: 0.22%
CN1CCCC(OC(=O)C(c2ccccc2)c2ccccc2)C1 (stereo unspecified) | inactive: -0.03%
CCN(N=Nc1nonc1N)c1nonc1N | inactive: -0.21%
CN(C(=O)Cc1ccccc1)C1CC[C@@]2(CCCO2)C[C@@H]1N1CCCC1 (stereo partly specified) | inactive: 0.19%
Nc1cccc2ccc([As](=O)(O)O)cc12 | inactive: 0.33%
CCCC1OP(N)(=O)OCC1CC (stereo unspecified) | inactive: 0.26%
O=C(O)c1ccccc1[As](=O)(O)O | inactive: 0.39%
CC(=O)Nc1ccc([As](=O)(O)O)cc1 | inactive: -0.25%
CN(C)P(=O)(N(C)C)n1c(Nc2ccccc2)nnc1-c1ccccc1 | inactive: 1.3%
O=P(Nc1nc2ccc(Cl)cc2s1)(c1ccccc1)c1ccccc1 | inactive: 0.03%
Cc1ccc(NP(=O)(Oc2ccccc2F)Oc2ccccc2F)nc1 | inactive: 0.18%
CN(C(=O)Cc1ccc(Cl)c(Cl)c1)[C@H]1CCCC[C@@H]1N1CCCC1 | inactive: -0.44%
CCOP(=O)(Nc1ccccc1)OCC | inactive: -0.04%
Cc1cc(SC(NC(=O)c2ccc(F)cc2)C(Cl)(Cl)Cl)ncn1 (stereo unspecified) | inactive: 0.24%
CCn1c(=O)n(C2CCN(CC3CCCCCCC3)C[C@H]2CO)c2ccccc21 (stereo partly specified) | inactive: 0.67%
CC(C)c1ccc(OP(=O)(Nc2ccccn2)Oc2ccccc2F)cc1 (stereo unspecified) | inactive: 0.44%
COC(=O)C1(C)COP(=O)(N2CCCCCC2)OC1 (stereo unspecified) | inactive: -0.19%
ClCCSc1nnc(-c2cccnc2)o1 | inactive: 0.74%
O=C(OC1CN2CCC1CC2)c1cccc2[nH]cnc12 (stereo unspecified) | inactive: 1.04%
CCN(CC)C(=S)SC(NC=O)C(Cl)(Cl)Cl (stereo unspecified) | inactive: 0.72%
CC(C)NC(=O)NP(=O)(Oc1ccccc1)Oc1ccccc1 | inactive: -0.12%
